Molecules are shown by their SMILES.

Here are results for 2 compounds from patent US20220251158A1, “INTERMEDIATE FILAMENT-DERIVED PEPTIDES AND THEIR USES” (UNIVERSITAT DE LLEIDA, priority 2019, published 2022).

For experiment [1], the system named is human PBMC (peripheral blood mononuclear cells). The experiment is described as follows: Pro-inflammatory cytokine production by human PBMC. It counts as cell-based. The note with it: for secretion of pro-inflammatory cytokines: 24 or 48 hours. The method, then:
FIG. 9—Concentrations of different cytokines produced by human PBMC cells cultured with peptides. 4×10^5 cells were incubated per well with peptide 72, or DIF-P, or DIF-P3K, or DIF-P8R, or Staurosporine, or Nigericine or without stimulus for 24 hours or 48 hours before collecting the supernatant. In the case of Staurosporine and Nigericine the production of cytokines was only analysed after 24 hours (*=p<0.05).
Culture supernatants from mice proliferation assays were collected and IL-2, IL-4, IL-6, IFN-γ, IL-10, TNF-α and IL-17 cytokine amounts analysed by flow cytometry using CBA kit (560485, BD). For human cell cultures, the Legendplex Kit was used (BioLegend, 740502), which studied cytokines IL-12p70, TNF-α, IL-6, IL-4, IL-10, IL-1β, arginase, IL-1st, IL-12p40, IL-23, IFN-γ and IP-10.
The cytolytic activity (induction of apoptosis and/or pyroptosis) and production of pro-inflammatory cytokines in cell cultures have been analysed for peptides DIF-P, DIF-P3K and DIF-P8R, using peptide 72 as a negative control, in cultures of human PBMC (peripheral blood mononuclear cells). The induction of apoptosis and/or pyroptosis, and cell death was detected by flow cytometry analysis, determining the expression (presence) of annexin V in the cell membrane, and the staining of the cell nucleus with propidium iodide, respectively (FIG. 6). […] The production of pro-inflammatory cytokines (IL-6, IL-1β, TNF-α, IL-12p40, IL-23, IP-10, IFN-γ) is determined after incubation with the stimulus after 24 or 48 hours (FIG. 9).

Experiment [2] has as its system purified neutrophils. The experiment is described as follows: Apoptosis assay of purified neutrophils from NOD bone marrow. It counts as cell-based, mouse. The method, then: FIG. 15—Representative dot plots of apoptosis assay of purified neutrophils from NOD bone marrow after culturing them with different peptides. Annexin V and PI positive cells were analysed after culturing 4×10^5 neutrophils for 24 or 48 hours with peptide 72, or DIF-P, or DIF-P3K, or without stimulus (n=4).
(§1) HL-60, Jurkat and NALM-6 cells were grown and maintained in complete culture medium in a humidified 5% CO2, atmosphere at 37° C. […] After 1 hour, 24 hours or 48 hours, cells were analysed by flow cytometry and culture supernatants stored at −80° C. until use.
(§2) For cell death and apoptosis analysis, 400.000 of primary cells or 100.000 of cell line cells were incubated in 96-well plates in 200 μL of complete culture medium for 24 h at 37° C. and 5% CO2 in the absence or presence of 55 μM of different peptides. After 1 hour, 24 hours or 48 hours, apoptosis was measured by CFBlue Annexin V Apoptosis Detection Kit with PI (ANXVKCFB-100T, Immunostep), following kit protocol. […] Cell suspensions were analysed by flow cytometry using FACS CANTO II instrumentation (BD, Biosciences, San Jose, Calif.) and Flowjo (version 8.7) software.

Experiment [3] has as its system monocytes. The experiment is described as follows: Apoptosis assay of purified monocytes from NOD bone marrow. It counts as cell-based, mouse. Here is the method: FIG. 14—Representative dot plots of apoptosis assay of purified monocytes from NOD bone marrow after culturing them with different peptides. Annexin V and PI positive cells were analysed after culturing 4×10^5 monocytes for 24 or 48 hours with peptide 72, or DIF-P, or DIF-P3K, or without stimulus (n=4).
as §1, §2

The test system of experiment [4] is NALM-6 cells. The experiment is described as follows: Cleaved Caspase-3 expression in NALM-6 cells. It counts as cell-based, human. Conditions: 55 μM. The method, then:
FIG. 5—Representative images of the expression of cleaved Caspase-3 in NALM-6 cells cultured with different peptides. […] The line in bold is equivalent to the expression of the control cells without peptide, and clearer curves are equivalent to cells incubated with different peptides (n=3).
HL-60, Jurkat and NALM-6 cells were grown and maintained in complete culture medium in a humidified 5% CO2, atmosphere at 37° C. […] Human splenocytes from buffy coats were collected by density gradient using Histopaque 1077 (Histopaque®-1077, 10771 sigma) as described elsewhere (Johnston, L., Harding, S. A. & La Flamme, A. C. Comparing methods for ex vivo characterization of human monocyte phenotypes and in vitro responses. Immunobiology 2015, 220, 1305-1310). Cells from bone marrow were obtained disrupting femur and tibia as explained elsewhere too (Liu, X. & Quan, N. Immune Cell Isolation from Mouse Femur Bone Marrow. Bio-protocol 5, 2015). Monocytes and neutrophils from bone marrow were purified using the Stemcell kits (19861 and 19762 subsequently) and the kit protocol was followed. Cells were incubated in 96-well tissue culture plates (4×10^5/well for primary cells and 1×10^5 for cells lines) at 37° C. in 5% CO2 in complete culture medium using 55 μM of different Peripherin peptides. For proliferation assays, cells were labelled with CFSE (C34554, life technologies). After 1 hour, 24 hours or 48 hours, cells were analysed by flow cytometry and culture supernatants stored at −80° C. until use.
After 1 hour, 24 hours or 48 hours, apoptosis was measured by CFBlue Annexin V Apoptosis Detection Kit with PI (ANXVKCFB-100T, Immunostep), following kit protocol. For cleaved caspasa-3 intracellular staining, mononuclear cells were permeabilised following the manufacturer's instructions of the FoxP3 Staining Buffer Set (00-5523-00, eBioscience) and the cleaved caspasa-3-Pacific Blue (8788S, Cell Signalling) was used for staining. Cell suspensions were analysed by flow cytometry using FACS CANTO II instrumentation (BD, Biosciences, San Jose, Calif.) and Flowjo (version 8.7) software.

On to `CC[C@H](C)[C@H](NC(=O)[C@H](CCC(=O)O)NC(=O)[C@@H](NC(=O)[C@H](CC(=O)O)NC(=O)[C@H](CC(C)C)NC(=O)[C@H](C)NC(=O)[C@H](CCSC)NC(=O)[C@H](CCCCN)NC(=O)[C@@H](NC(=O)[C@H](CC(N)=O)NC(=O)[C@H](CC(C)C)NC(=O)[C@@H](N)CC(C)C)C(C)C)[C@@H](C)CC)C(=O)N[C@@H](CCCNC(=N)N)C(=O)N[C@@H](CCCNC(=N)N)C(=O)N[C@@H](CCCNC(=N)N)C(=O)N[C@@H](CCCNC(=N)N)C(=O)N[C@@H](CCCNC(=N)N)C(=O)N[C@@H](CCCNC(=N)N)C(=O)N[C@@H](CCCNC(=N)N)C(=O)N[C@@H](CCCNC(=N)N)C(=O)O` [DIF-P8R], for which the “secretion of pro-inflammatory cytokines” value in experiment [1] is given as “induce secretion of pro-inflammatory cytokines”. Also, the “induction of apoptosis and/or pyroptosis” value in experiment [2] and in experiment [3] was “more efficient than peptide DIF-P” each time. For the same compound, the “cell death determined by cleaved Caspase-3 expression” value in experiment [4] (1 hour) is 55%; in experiment [4] (24 hours), 85%.
Regarding `CC[C@H](C)[C@H](NC(=O)[C@H](CCC(=O)O)NC(=O)[C@@H](NC(=O)[C@H](CC(=O)O)NC(=O)[C@H](CC(C)C)NC(=O)[C@H](C)NC(=O)[C@H](CCSC)NC(=O)[C@H](CCCCN)NC(=O)[C@@H](NC(=O)[C@H](CC(N)=O)NC(=O)[C@H](CC(C)C)NC(=O)[C@@H](N)CC(C)C)C(C)C)[C@@H](C)CC)C(=O)N[C@@H](CCCCN)C(=O)N[C@@H](CCCCN)C(=O)N[C@@H](CCCCN)C(=O)O` [DIF-P3K, LLNVKMALDIEIKKK], the “secretion of pro-inflammatory cytokines” value in experiment [1] is on record as “induce secretion of pro-inflammatory cytokines”. Also, the “production of pro-inflammatory cytokines (comparison between peptides)” value in experiment [1] (leukocytes that remain alive at the end of the culture) was “least efficient in inducing cytokine secretion”. The “induction of apoptosis and/or pyroptosis” value in experiment [2] and in experiment [3] was “more efficient than peptide DIF-P” throughout. In addition, the “cell death determined by cleaved Caspase-3 expression” value in experiment [4] (1 hour) turned out to be 22%; in experiment [4] (24 hours) it was 40%.
